# scFv variants of Ab-14 (heavy chain) against a SARS-CoV-2 spike peptide

Target: peptide PDVDLGDISGINAS, taken from heptad repeat 2 (HR2) of SARS-CoV-2 spike.

The variants keep the light chain, the linker and the frameworks of Ab-14 (scFv order VH, three GGGGS repeats, VL).
VH: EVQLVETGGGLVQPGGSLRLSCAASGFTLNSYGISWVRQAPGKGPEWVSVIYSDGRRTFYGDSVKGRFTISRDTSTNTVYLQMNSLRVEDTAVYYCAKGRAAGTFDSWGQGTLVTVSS
VL: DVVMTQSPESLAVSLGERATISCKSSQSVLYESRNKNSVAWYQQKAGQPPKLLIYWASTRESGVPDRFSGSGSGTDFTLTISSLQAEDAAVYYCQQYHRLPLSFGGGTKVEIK

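Phage display of a naive human antibody library on the peptide gave the parent. The variants were designed computationally from a first round of random CDR variants and then made and measured. Group labels follow the data file (Ctrl: baseline library sampled from a position-specific scoring matrix, with some repeated check sequences; GPLM: also part of the Gaussian process libraries; HC: hill climbing; Gen: genetic algorithm; a sequence that several methods proposed may carry one label only). The scFvs were displayed on barcoded MATa yeast, the peptide on MATalpha yeast. Mating (16 h, 30 °C) was followed by selection of diploids and sequencing of their barcodes. Each replicate has its own calibration line, from reference interactions of the BCL2 family. There are six technical replicates.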

Variants are written as CDR1, CDR2 and CDR3 of the heavy chain (limits as in the source). Parent: GFTLNSYGIS, VIYSDGRRTFYGDSVK, GRAAGTFDS. The read-out is the apparent dissociation constant on a log10 scale (nM): the lower, the stronger. "n.d." means that the variant was in the library but no mating with the target was seen in that replicate; the authors take this as a sign of poor binding, and no number exists. Three control strains display no target. For all heavy chain designs, 1% of the pairings with them gave a signal, with a median of 2.08 and one signal in twenty below 0.84, so weak values seen in few replicates may be background. For each scFv, signals with the empty controls are counted beside the result, with their mean in brackets. Some sequences occur more than once in the pool; their replicates are listed entry by entry, parted by semicolons. The range of this assay differs from that of the first round, and the authors advise against merging the two. The authors' rule: three or more of the six replicates give a measured affinity, fewer mean a poor binder.

CDR-H1 | CDR-H2 | CDR-H3 | group | log10 Kd, replicates | control signals
GFTLDQYGIS | VIYADGRRTFYGDAVK | GRATGTFDS | Ctrl | n.d. n.d. 2.43 n.d. n.d. n.d. | 0/18
GFGLNSYGYS | VIYSDGRRTFYGDSVK | GRAAGRFDS | Ctrl | n.d. n.d. n.d. n.d. n.d. n.d. | 0/18
GFTLNSYGIS | VIYSDGLRTEYGDSVK | GRAHGTFDS | Ctrl | n.d. n.d. n.d. n.d. n.d. n.d. | 0/18
GFTLNSYGIS | VIYADGRRTFYGDSVK | GKRAGTFDS | Ctrl | -0.10 -0.23 0.22 0.60 0.44 0.00 | 1/18 (-0.01)
GETLNSYGIS | VIYSDGRRTFYGPSVK | GRAAGTFDS | Ctrl | 2.99 2.55 n.d. n.d. n.d. 2.47 | 0/18
GFQLNSYGIS | VIYSDGRRTFYQDSVK | GTLCGTFDS | Ctrl | n.d. n.d. n.d. n.d. n.d. n.d. | 0/18
GFTLNSYGIS | VIYSDGRRTFYGDSVK | GRAPGTFDH | Ctrl | n.d. n.d. n.d. 2.81 n.d. n.d. | 0/18
GFTLNSYGIS | VIYSDGRRTFYADSVK | GEAAGTFDS | Ctrl+GPLM_Gen | 0.65 0.71 0.22 -0.19 0.10 0.50; 0.82 0.97 0.64 n.d. 0.47 0.83 | 2/36 (2.01)
GFTLNDHGIS | VIYSDGRRTFYGDSVK | GRMAGTPDS | Ctrl | n.d. n.d. n.d. n.d. n.d. n.d. | 0/18
GFTLNSYGIS | VIYADGRRTFYGDSVK | GPAAGTFDS | Ctrl | -0.02 0.33 0.04 -0.33 0.70 -0.48 | 0/18
GFTLNEYGIS | VIYSDGRRTFYTDSVK | GRNPGTFDS | Ctrl | n.d. 1.13 n.d. 0.24 2.12 n.d. | 0/18
GFTLSSYGIS | TIYSDGRRTFYGDSVK | GRAAGTDDS | Ctrl | n.d. n.d. n.d. n.d. n.d. n.d. | 0/18
GFTLLSYGIS | VIYSDGRRTFYGDQVK | GRHAGTFDS | Ctrl | n.d. n.d. n.d. n.d. n.d. n.d. | 0/18
GFTLNSYGIS | VIYSDGRRTFYGDKVK | GRAAHTFDS | Ctrl | n.d. n.d. n.d. n.d. n.d. n.d. | 0/18
GFTLNSYGIH | VIYSDGRRTAYGDSVK | GRNVGTFDL | Ctrl | n.d. n.d. n.d. n.d. n.d. n.d. | 0/18
GFTLNSYGIS | VIYSDGRRTFYTDSVK | GREAGTFDS | Ctrl+GPLM_HC | n.d. n.d. n.d. n.d. n.d. n.d.; 0.32 0.21 0.67 -0.26 -0.12 -0.09 | 0/36
GFTLNSYGIS | VIYSDGRRTWYHDSVK | GRAAGTFDS | Ctrl | 0.90 0.91 0.90 1.32 1.30 n.d. | 1/18 (2.19)
GTTINQYGIS | VIYSDGRRTNYGDSVK | GRQTGTFDS | Ctrl | n.d. n.d. n.d. n.d. n.d. n.d. | 0/18
GFTLNSYGIS | VIYSDGRRTFYGDSVW | GRAAGTFDS | Ctrl | n.d. n.d. n.d. n.d. n.d. n.d. | 0/18
GFTLNEYGIS | VIYSDGRRTAYGDNVK | GRVAGTFDS | Ctrl | 0.62 0.00 0.09 -0.46 0.39 -0.02 | 0/18
GFDLNSYGIT | VIYSDGRRTFYGDSVK | GRAAGTFDS | Ctrl | 1.95 0.69 2.15 0.67 1.66 0.95 | 1/18 (2.19)
GFTNNSYGIS | VIYSDGRRTFYQDSVK | GSAAGTFDD | Ctrl | 0.39 0.12 0.82 -0.20 0.37 0.67 | 1/18 (0.78)
GFTLSSYGVS | VIYSDGRRTFYGDSVK | GRAAGTFDS | Ctrl | n.d. n.d. n.d. n.d. n.d. n.d. | 0/18
GFNLNDYGIS | VIYSDGRRTFYGDSVK | GSASGTFDS | Ctrl | n.d. n.d. 2.79 4.02 2.98 2.68 | 0/18
GETLAQYGIS | VIYSDGRRTFYIDSVK | GRYAGTFDS | Ctrl | n.d. n.d. n.d. 1.11 1.05 2.75 | 0/18
TFTLNSYGIS | VIYSDGRRVFYGDSVK | GRAAGTFDS | Ctrl | n.d. n.d. n.d. n.d. n.d. n.d. | 0/18
GEHLNSYGIS | VIYSDGRRTFYGDSVK | GMEAGTFDT | Ctrl | n.d. 2.45 1.13 3.46 2.59 2.21 | 0/18
GFTLNSYGIS | VIYSDGRRTFYEDAVK | GFAAGTFDS | Ctrl | n.d. n.d. n.d. n.d. n.d. n.d. | 0/18
GFTLESYGIS | VIYSDGRRTFYADSVK | GRRAGTFDS | Ctrl | 1.57 1.47 1.09 n.d. 3.74 n.d. | 0/18
GFTLNSYGIS | VIYHDGRRTFYHDSVK | GRERGTFDS | Ctrl | n.d. n.d. n.d. n.d. n.d. n.d. | 0/18
GFTLNSYGIS | VIYSDGRRTFYGDSVK | GRAAGTFNK | Ctrl | n.d. n.d. n.d. n.d. n.d. n.d. | 0/18
GFTLASYGIS | VIYSDGRRTFYGDSVK | GKAFGTFDS | Ctrl | n.d. n.d. n.d. n.d. n.d. n.d. | 0/18
GNTLNSYGIS | VIYSDGRRTFYGDSVK | GRAAGLFDG | Ctrl | n.d. n.d. n.d. n.d. n.d. n.d. | 0/18
GETLNSYGIS | VIYSDGRRTFYGDSVK | TRASGTFDS | Ctrl | n.d. n.d. n.d. n.d. n.d. n.d. | 0/18

Again, the first 5 entries without any signal:

| CDR-H1 | CDR-H2 | CDR-H3 | group | log10 Kd, replicates | control signals |
|---|---|---|---|---|---|
| GFGLNSYGYS | VIYSDGRRTFYGDSVK | GRAAGRFDS | Ctrl | n.d. n.d. n.d. n.d. n.d. n.d. | 0/18 |
| GFTLNSYGIS | VIYSDGLRTEYGDSVK | GRAHGTFDS | Ctrl | n.d. n.d. n.d. n.d. n.d. n.d. | 0/18 |
| GFQLNSYGIS | VIYSDGRRTFYQDSVK | GTLCGTFDS | Ctrl | n.d. n.d. n.d. n.d. n.d. n.d. | 0/18 |
| GFTLNDHGIS | VIYSDGRRTFYGDSVK | GRMAGTPDS | Ctrl | n.d. n.d. n.d. n.d. n.d. n.d. | 0/18 |
| GFTLSSYGIS | TIYSDGRRTFYGDSVK | GRAAGTDDS | Ctrl | n.d. n.d. n.d. n.d. n.d. n.d. | 0/18 |

Values reported by Li et al. 2023, doi:10.1038/s41467-023-39022-2 (FLAb copy).